The target of test [1] is T1, beta-catenin-B-cell lymphoma 9 protein complex (Homo sapiens) (UniProt P35222+O00512). The test can be described thus: Inhibition of protein interaction between beta-catenin /BCL9 in human SW480 cells assessed as reduction in Wnt target genes by measuring change in LEF1 mRNA expression at 1 uM incubated for 24 hrs by qPCR analysis relative to control. Format: cell-based. Background: Real-time PCR tracks product formation cycle by cycle.

By UniProt entry, the sequences of proteins in these tests, tags left out. Where a name states a change or a piece, a line headed by the entry shows the natural chain unless it says otherwise.
UniProt P35222: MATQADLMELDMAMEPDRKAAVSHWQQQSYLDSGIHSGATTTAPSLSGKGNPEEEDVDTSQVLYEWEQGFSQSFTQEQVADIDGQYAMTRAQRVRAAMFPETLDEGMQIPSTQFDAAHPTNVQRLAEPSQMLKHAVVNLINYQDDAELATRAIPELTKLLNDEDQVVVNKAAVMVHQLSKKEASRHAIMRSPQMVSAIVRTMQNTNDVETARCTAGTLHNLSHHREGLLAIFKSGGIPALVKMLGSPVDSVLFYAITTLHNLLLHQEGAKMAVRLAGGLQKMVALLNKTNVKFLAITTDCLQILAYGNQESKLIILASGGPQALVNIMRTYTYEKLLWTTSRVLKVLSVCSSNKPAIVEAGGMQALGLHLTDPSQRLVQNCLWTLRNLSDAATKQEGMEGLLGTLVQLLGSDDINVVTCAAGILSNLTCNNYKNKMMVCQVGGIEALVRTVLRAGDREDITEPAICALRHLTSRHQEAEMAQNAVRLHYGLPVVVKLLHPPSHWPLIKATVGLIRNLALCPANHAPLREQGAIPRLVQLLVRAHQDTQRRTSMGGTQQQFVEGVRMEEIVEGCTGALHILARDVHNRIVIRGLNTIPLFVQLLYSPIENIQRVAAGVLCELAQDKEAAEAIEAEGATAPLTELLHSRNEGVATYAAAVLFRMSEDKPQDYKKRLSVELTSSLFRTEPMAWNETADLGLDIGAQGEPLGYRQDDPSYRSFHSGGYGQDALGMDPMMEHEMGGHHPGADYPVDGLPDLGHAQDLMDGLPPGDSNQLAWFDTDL
UniProt O00512: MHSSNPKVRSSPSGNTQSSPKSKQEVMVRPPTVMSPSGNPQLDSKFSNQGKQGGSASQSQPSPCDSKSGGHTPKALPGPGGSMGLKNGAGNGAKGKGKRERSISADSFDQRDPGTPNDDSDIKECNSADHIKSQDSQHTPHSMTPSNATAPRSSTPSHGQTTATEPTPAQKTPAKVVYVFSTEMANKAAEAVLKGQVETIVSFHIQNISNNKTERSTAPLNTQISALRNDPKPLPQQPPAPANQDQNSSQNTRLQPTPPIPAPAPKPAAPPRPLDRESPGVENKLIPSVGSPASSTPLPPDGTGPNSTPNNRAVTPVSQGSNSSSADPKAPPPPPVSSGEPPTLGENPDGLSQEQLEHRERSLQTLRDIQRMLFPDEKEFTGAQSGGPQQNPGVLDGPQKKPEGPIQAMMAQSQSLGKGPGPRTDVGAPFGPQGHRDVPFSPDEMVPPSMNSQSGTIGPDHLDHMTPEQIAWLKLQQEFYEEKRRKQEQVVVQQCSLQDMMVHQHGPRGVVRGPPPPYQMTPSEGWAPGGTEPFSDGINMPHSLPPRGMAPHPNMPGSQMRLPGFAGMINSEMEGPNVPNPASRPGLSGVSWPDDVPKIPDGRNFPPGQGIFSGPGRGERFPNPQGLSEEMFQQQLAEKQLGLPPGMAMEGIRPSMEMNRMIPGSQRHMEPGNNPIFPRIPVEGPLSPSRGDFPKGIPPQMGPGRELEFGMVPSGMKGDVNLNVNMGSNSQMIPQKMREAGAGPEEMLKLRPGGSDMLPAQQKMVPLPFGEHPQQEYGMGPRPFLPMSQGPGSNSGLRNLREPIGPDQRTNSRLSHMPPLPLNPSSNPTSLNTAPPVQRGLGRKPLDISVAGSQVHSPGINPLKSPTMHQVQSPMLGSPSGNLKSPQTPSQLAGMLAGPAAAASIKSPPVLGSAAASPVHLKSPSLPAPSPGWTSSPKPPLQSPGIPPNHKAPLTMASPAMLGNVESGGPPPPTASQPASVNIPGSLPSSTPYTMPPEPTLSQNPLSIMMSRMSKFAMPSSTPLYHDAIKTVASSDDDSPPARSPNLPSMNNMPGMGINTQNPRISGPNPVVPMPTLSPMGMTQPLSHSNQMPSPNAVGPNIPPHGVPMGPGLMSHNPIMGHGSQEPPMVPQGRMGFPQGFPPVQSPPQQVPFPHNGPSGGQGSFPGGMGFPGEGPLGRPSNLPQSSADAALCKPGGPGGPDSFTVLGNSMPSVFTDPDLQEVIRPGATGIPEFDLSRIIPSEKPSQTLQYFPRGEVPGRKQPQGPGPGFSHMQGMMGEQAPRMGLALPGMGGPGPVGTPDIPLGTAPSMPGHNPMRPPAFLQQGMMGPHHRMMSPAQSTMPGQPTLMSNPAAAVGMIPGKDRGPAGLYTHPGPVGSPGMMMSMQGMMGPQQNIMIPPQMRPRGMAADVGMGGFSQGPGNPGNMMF

Test [2] has as its target T1, beta-catenin-B-cell lymphoma 9 protein complex (Homo sapiens). The test can be described thus: Inhibition of protein interaction between beta-catenin /BCL9 in human SW480 cells assessed as reduction in Wnt target genes by measuring change in cyclin D1 mRNA expression at 1 uM incubated for 24 hrs by qPCR analysis relative to control. It counts as cell-based.
The target is the same in test [3]. The test can be described thus: Inhibition of protein interaction between beta-catenin /BCL9 in human SW480 cells assessed as reduction in Wnt target genes by measuring change in cyclin D1 mRNA expression at 2 uM incubated for 24 hrs by qPCR analysis relative to control. It counts as cell-based.
Test [4] shares this target. The test can be described thus: Inhibition of protein interaction between beta-catenin /BCL9 in human SW480 cells assessed as reduction in Wnt target genes by measuring change in Axin2 mRNA expression at 1 uM incubated for 24 hrs by qPCR analysis relative to control. It counts as cell-based.
Test [5] shares this target. Kind of test: Inhibition of protein interaction between beta-catenin /BCL9 in human SW480 cells assessed as reduction in Wnt target genes by measuring change in LEF1 mRNA expression at 2 uM incubated for 24 hrs by qPCR analysis relative to control. It counts as cell-based.
Test [6] has the same target. Kind of test: Inhibition of protein interaction between beta-catenin /BCL9 in human SW480 cells assessed as reduction in Wnt target genes by measuring change in Axin2 mRNA expression at 4 uM incubated for 24 hrs by qPCR analysis relative to control. Format: cell-based.
Test [7] shares this target. Kind of test: Inhibition of protein interaction between beta-catenin /BCL9 in human SW480 cells assessed as reduction in Wnt target genes by measuring change in cyclin D1 mRNA expression at 4 uM incubated for 24 hrs by qPCR analysis relative to control. Format: cell-based.
For test [8] the target is unchanged. Kind of test: Inhibition of protein interaction between beta-catenin /BCL9 in human SW480 cells assessed as reduction in Wnt target genes by measuring change in Axin2 mRNA expression at 2 uM incubated for 24 hrs by qPCR analysis relative to control. Format: cell-based.
The target is the same in test [9]. The test can be described thus: Inhibition of protein interaction between beta-catenin /BCL9 in human SW480 cells assessed as reduction in Wnt target genes by measuring change in LEF1 mRNA expression at 4 uM incubated for 24 hrs by qPCR analysis relative to control. It counts as cell-based.
For test [10] the target is unchanged. The test can be described thus: Inhibition of protein interaction between beta-catenin /BCL9 in human SW480 cells assessed as reduction in Wnt target genes by measuring change in LEF1 mRNA expression at 25 uM incubated for 24 hrs by qPCR analysis relative to control. Format: cell-based.
Test [11] has the same target. The test can be described thus: Inhibition of protein interaction between beta-catenin /BCL9 in human SW480 cells assessed as reduction in Wnt target genes by measuring change in LEF1 mRNA expression at 50 uM incubated for 24 hrs by qPCR analysis relative to control. It counts as cell-based.
For test [12] the target is unchanged. The test can be described thus: Inhibition of protein interaction between beta-catenin /BCL9 in human SW480 cells assessed as reduction in Wnt target genes by measuring change in Axin2 mRNA expression at 25 uM incubated for 24 hrs by qPCR analysis relative to control. It counts as cell-based.
For test [13] the target is unchanged. The test can be described thus: Inhibition of protein interaction between beta-catenin /BCL9 in human SW480 cells assessed as reduction in Wnt target genes by measuring change in cyclin D1 mRNA expression at 100 uM incubated for 24 hrs by qPCR analysis relative to control. It counts as cell-based.
The target is the same in test [14]. Kind of test: Inhibition of protein interaction between beta-catenin /BCL9 in human SW480 cells assessed as reduction in Wnt target genes by measuring change in LEF1 mRNA expression at 100 uM incubated for 24 hrs by qPCR analysis relative to control. It counts as cell-based.
For test [15] the target is unchanged. The test can be described thus: Inhibition of protein interaction between beta-catenin /BCL9 in human SW480 cells assessed as reduction in Wnt target genes by measuring change in cyclin D1 mRNA expression at 50 uM incubated for 24 hrs by qPCR analysis relative to control. It counts as cell-based.
Test [16] shares this target. Kind of test: Inhibition of protein interaction between beta-catenin /BCL9 in human SW480 cells assessed as reduction in Wnt target genes by measuring change in Axin2 mRNA expression at 50 uM incubated for 24 hrs by qPCR analysis relative to control. Format: cell-based.
Test [17] has the same target. The test can be described thus: Inhibition of protein interaction between beta-catenin /BCL9 in human SW480 cells assessed as reduction in Wnt target genes by measuring change in Axin2 mRNA expression at 100 uM incubated for 24 hrs by qPCR analysis relative to control. It counts as cell-based.
The species entered for test [18] is Homo sapiens. The test can be described thus: Selectivity index, ratio of Ki for inhibition of protein interaction between beta-catenin (unknown origin)/human E-cadherin to Ki for inhibition of protein interaction between beta-catenin (unknown origin)/human BCL9.
In test [19] the target is T1, beta-catenin-B-cell lymphoma 9 protein complex (Homo sapiens). Kind of test: Inhibition of protein interaction between beta-catenin /BCL9 in human SW480 cells assessed as reduction in Wnt target genes by measuring change in cyclin D1 mRNA expression at 25 uM incubated for 24 hrs by qPCR analysis relative to control. It counts as cell-based.
For test [20] the target is unchanged. The test can be described thus: Inhibition of protein interaction between beta-catenin /BCL9 in human SW480 cells assessed as reduction in Wnt target genes by measuring change in cyclin D1 mRNA expression at 8 uM incubated for 24 hrs by qPCR analysis relative to control. Format: cell-based.
Test [21] has the same target. The test can be described thus: Inhibition of protein interaction between beta-catenin /BCL9 in human SW480 cells assessed as reduction in Wnt target genes by measuring change in Axin2 mRNA expression at 8 uM incubated for 24 hrs by qPCR analysis relative to control. It counts as cell-based.
The target is the same in test [22]. The test can be described thus: Inhibition of protein interaction between beta-catenin /BCL9 in human SW480 cells assessed as reduction in Wnt target genes by measuring change in LEF1 mRNA expression at 8 uM incubated for 24 hrs by qPCR analysis relative to control. It counts as cell-based.
Test [23] has the same target. The test can be described thus: Inhibition of protein interaction between beta-catenin /BCL9 in human SW480 cells assessed as reduction in Wnt target genes by measuring change in Axin2 mRNA expression at 10 uM incubated for 24 hrs by qPCR analysis relative to control. It counts as cell-based.
Test [24] has the same target. Kind of test: Inhibition of protein interaction between beta-catenin /BCL9 in human SW480 cells assessed as reduction in Wnt target genes by measuring change in Axin2 mRNA expression at 5 uM incubated for 24 hrs by qPCR analysis relative to control. It counts as cell-based.
For test [25] the target is unchanged. The test can be described thus: Inhibition of protein interaction between beta-catenin /BCL9 in human SW480 cells assessed as reduction in Wnt target genes by measuring change in Axin2 mRNA expression at 20 uM incubated for 24 hrs by qPCR analysis relative to control. It counts as cell-based.

On to `Cl.Cl.O=C(Nc1ccc(O[C@H]2CCNC2)c(-c2ccc(F)cc2)c1)c1ccc(O[C@H]2CCNC2)c(-c2ccc3ccsc3c2)c1`, for which the fold change (FC) came out at 0.707 in test [1]; 0.674 in [2]; 0.528 in [3]; 0.95 in test [4]; 0.585 in test [5]; 0.532 in test [6]. Moreover, the values for the fold change (FC) in test [7], in test [8] and in test [9] were 0.353, 0.871 and 0.395, respectively.
Regarding `Cl.Cl.O=C(Nc1ccc(O[C@@H]2CCNC2)c(-c2cccc(-c3nn[nH]n3)c2)c1)c1ccc(O[C@H]2CCNC2)c(-c2ccc(F)c(F)c2)c1`, the fold change (FC) in test [10] is 0.829; in test [11], 0.586; in [12] it was 0.555; in test [13], 0.326; in test [14], 0.42; in test [15] it was 0.444. For the same molecule, the fold change (FC) in test [16] stood at 0.441; in test [17] it was 0.384; in [19], 0.563. The Ratio Ki in test [18] is more than 1900.
As to `Cc1cc(F)ccc1-c1cc(NC(=O)c2ccc(O[C@H]3CCNC3)c(-c3ccc(F)c(F)c3)c2)ccc1O[C@H]1CCNC1.Cl.Cl`, the fold change (FC) in test [3] came to 0.953; in test [20], 0.212; in test [21], 0.2; in [5], 0.406; in test [6] it was 0.312; in test [7], 0.257. Also, the fold change (FC) in [8] amounted to 0.417; in test [22] it was 0.303; in test [9] it was 0.395.
For the molecule `Cl.Cl.Fc1ccc(-c2cc(-c3ccc4cc(O[C@H]5CCNC5)c(-c5ccc(F)c(F)c5)cc4n3)ccc2O[C@H]2CCNC2)cc1`, the fold change (FC) came out at 0.835 in [23], 0.959 in test [24] and 0.599 in test [25].
Take `Cl.Cl.O=C(Nc1ccc(O[C@@H]2CCNC2)c(-c2cccc(-c3nn[nH]n3)c2)c1)c1ccc(O[C@H]2CCNC2)c(-c2ccc3ccsc3c2)c1`: the Ratio Ki in [18] is more than 570.
